Test results published in patent US8778958B2, “Synthesis of metabolically stable agents for alcohol and drug abuse” (priority 2008, dated 2014).

Amino acid sequences for entries named in this document (tags omitted). A change or cut given only in a name is not applied to a line headed by its entry.
UniProt P35372, whole entry: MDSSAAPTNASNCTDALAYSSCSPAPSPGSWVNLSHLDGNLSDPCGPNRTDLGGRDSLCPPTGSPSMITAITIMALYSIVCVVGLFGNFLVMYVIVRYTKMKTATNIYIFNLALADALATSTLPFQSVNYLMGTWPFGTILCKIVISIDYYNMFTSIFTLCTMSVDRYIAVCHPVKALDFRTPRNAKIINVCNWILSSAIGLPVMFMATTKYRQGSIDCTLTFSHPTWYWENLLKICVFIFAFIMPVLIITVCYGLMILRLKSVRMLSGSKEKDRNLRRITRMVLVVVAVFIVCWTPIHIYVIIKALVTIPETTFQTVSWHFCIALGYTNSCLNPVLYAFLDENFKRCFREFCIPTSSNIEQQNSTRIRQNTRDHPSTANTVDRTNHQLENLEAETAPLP
UniProt P41145: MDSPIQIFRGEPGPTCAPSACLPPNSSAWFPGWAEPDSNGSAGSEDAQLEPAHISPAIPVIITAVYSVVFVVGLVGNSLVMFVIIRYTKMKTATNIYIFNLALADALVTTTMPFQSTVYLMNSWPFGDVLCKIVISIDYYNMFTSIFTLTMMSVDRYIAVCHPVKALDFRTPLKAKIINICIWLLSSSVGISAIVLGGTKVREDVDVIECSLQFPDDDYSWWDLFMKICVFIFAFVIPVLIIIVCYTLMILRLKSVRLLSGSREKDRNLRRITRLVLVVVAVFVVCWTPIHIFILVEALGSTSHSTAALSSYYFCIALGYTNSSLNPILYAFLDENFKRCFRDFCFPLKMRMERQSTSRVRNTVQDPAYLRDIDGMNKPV
UniProt P32300, whole entry: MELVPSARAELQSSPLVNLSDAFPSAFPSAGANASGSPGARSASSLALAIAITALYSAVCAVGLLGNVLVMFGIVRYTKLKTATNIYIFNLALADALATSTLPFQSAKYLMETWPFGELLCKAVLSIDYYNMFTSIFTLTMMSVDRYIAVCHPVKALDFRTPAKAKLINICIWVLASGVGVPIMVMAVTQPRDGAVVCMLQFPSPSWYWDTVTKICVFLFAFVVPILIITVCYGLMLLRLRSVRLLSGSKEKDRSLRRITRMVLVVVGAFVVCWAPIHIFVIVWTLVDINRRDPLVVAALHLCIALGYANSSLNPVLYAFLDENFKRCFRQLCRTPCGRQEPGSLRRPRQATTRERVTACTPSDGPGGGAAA

Legend:
μ-opioid receptor = target: T1, μ-opioid receptor (Homo sapiens, UniProt P35372); format: binding; conditions: read-out: Ki (nM) ± SEM, μ
T1 construct: expressed in transfected cells; host or cells: CHO cells

δ-opioid receptor [1] = target: T2, δ-opioid receptor (Homo sapiens, UniProt P41143); format: binding; conditions: read-out: Ki (nM) ± SEM, δ
T2 construct: expressed in transfected cells; host or cells: CHO cells

κ-opioid receptor = target: T3, κ-opioid receptor (Homo sapiens, UniProt P41145); format: binding; conditions: read-out: Ki (nM) ± SEM, κ
T3 construct: expressed in transfected cells; host or cells: CHO cells

δ-opioid receptor [2] = target: T4, δ-opioid receptor (Mus musculus, UniProt P32300); format: biochemical, human; conditions: read-out: EC50, δ, stimulation of [35S]GTPγS binding
T4 construct: hemagglutinin (HA); expressed in transfected cells

Row | SMILES | Ki (μ-opioid receptor) | Ki (δ-opioid receptor [1]) | Ki (κ-opioid receptor) | EC50 (δ-opioid receptor [2])
1 | O=C(N[C@@H]1CC[C@@]2(O)[C@H]3Cc4ccc(O)c5c4[C@@]2(CCN3CC2CC2)[C@H]1O5)c1ccc(Br)cc1 [Compound 6, 6-β-(4′-Bromo)benzamido-14-hydroxy-17-(cyclopropylmethyl) nordesmorphine] | 0.88 ± 0.1 nM | 2.2 ± 0.3 nM | 0.29 ± 0.04 nM | 
2 | O=C(N[C@@H]1CC[C@@]2(O)[C@H]3Cc4ccc(O)c5c4[C@@]2(CCN3CC2CC2)[C@H]1O5)c1ccc(Cl)cc1 [Compound 10, 6-β-(4′-Chloro)benzamido-14-hydroxy-17-(cyclopropylmethyl)nordesmorphine] |  | 2.6 ± 0.3 nM |  | 42 ± 3.1 nM
